Data reported in PubChem BioAssay (NCATS).
The entries are a selection whose mix differs from that of the whole data set. Records with an inconclusive call do not appear. Active and inactive are the calls of the source. Calls come from the whole dose curve; as a rule, active = well fitted curve in the direction sought with a large enough effect; inconclusive = small, poorly fitted or top-dose-only effect, or another doubt; inactive = no such curve, though single readings can be large; an effect the other way counts as inactive or inconclusive.

What was measured:
[1] = Viability qHTS for spleen associated tyrosine kinase inhibitor (SYKi) drug resistant MV4-11 cells (AID 1963824); settings: SYKi-resistant MV4-11 viability, CellTiter-Glo, 72 h; note: potency is the fitted concentration of half-maximal effect; nearly all actives have a fitted effect of over 35% in size
Text: Department of Medicine, Hematology/Oncology
University Hospital Frankfurt, Germany.
Trials have shown promising clinical activity of the selective SYK inhibitor entospletinib in patients with high expressing HOXA9/MEIS1 acute leukemias. As the development of resistance mechanisms is a common problem in the use of targeted drugs, we performed a chemical library screen to identify drug sensitivities in SYK inhibitor resistant AML cells. […] Glucocorticoids are potent immunosuppressants which work in part by inhibiting the transcription of cytokine genes.
Described herein is a viability screen to look for activity in the SYK inhibitor drug resistant cell line against four NCATS compound libraries (MIPE 5.0, NPC, NPACT, and Kinase) totaling 11372 compounds. Active hits were reacquired for confirmation and further secondary assay testing.
SEQUENCE No. (e.g., 1, 2, 3, etc.); […] (e.g., Cells, Incubation, Reagent, etc.); VALUE; DESCRIPTION.
1; Media; 2uL; white, solid-bottom Corning assay plate.
2; Compounds; 23nL; Echo acoustic dispenser. […]
7; Detection; Luminescence; ViewLux plate reader (PerkinElmer). […]
1. Quantitative high-throughput screening (qHTS) of small molecule compounds was conducted on drug resistant SYKi MV4-11 cell line. […]
5. Viability was assessed by adding 3uL of CellTiter-Glo detection reagent (Promega). […]
7. Luminescence was measured on a ViewLux plate reader (PerkinElmer).

[2] = Cellular viability qHTS for adrenocortical cancer (ACC) cell line SW-13 (AID 1963989); settings: SW-13 ACC cells viability, CellTiter-Glo, 48 h; active compounds read low;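 note: cells grown in serum-free medium with ITS supplement; % is set by controls: 0 for no effect and ±100 for the full control effect; nearly all actives have a fitted effect of over 65% in size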
Outline: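 Here, serum-free SW-13 cultures were dosed up to 46 uM. Following 48 h, ATP-dependent luminescence (CellTiter-Glo) reported viable cells, and logistic modeling produced IC50 values.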

**Q.** Which Potency [1] does the source give for `Cc1cc([N+](=O)[O-])cc([N+](=O)[O-])c1O` here?
**A.** active: 34.4 µM

**Q.** For `OCCSCCO`, which activity (max response) [2] is on record?
**A.** inactive: 10.7%
